Assay results published in patent US20100324034A1 (priority 2007, published 2010).

By UniProt entry, the sequences of proteins in these tests, tags left out. Residues count along the entry.
UniProt P04584, 613-1051: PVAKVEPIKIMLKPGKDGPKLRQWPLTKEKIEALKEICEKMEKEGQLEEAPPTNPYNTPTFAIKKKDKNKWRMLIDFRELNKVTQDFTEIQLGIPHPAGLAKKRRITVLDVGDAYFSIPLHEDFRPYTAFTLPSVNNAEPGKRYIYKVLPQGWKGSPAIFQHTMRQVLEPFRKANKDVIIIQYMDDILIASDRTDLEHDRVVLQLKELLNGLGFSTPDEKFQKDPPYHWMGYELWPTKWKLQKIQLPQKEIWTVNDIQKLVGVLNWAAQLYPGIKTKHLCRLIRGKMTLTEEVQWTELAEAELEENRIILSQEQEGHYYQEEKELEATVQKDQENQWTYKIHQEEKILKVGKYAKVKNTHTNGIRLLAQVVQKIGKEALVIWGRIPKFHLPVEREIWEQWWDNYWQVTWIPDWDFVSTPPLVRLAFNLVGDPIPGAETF
UniProt P04584, 613-1171: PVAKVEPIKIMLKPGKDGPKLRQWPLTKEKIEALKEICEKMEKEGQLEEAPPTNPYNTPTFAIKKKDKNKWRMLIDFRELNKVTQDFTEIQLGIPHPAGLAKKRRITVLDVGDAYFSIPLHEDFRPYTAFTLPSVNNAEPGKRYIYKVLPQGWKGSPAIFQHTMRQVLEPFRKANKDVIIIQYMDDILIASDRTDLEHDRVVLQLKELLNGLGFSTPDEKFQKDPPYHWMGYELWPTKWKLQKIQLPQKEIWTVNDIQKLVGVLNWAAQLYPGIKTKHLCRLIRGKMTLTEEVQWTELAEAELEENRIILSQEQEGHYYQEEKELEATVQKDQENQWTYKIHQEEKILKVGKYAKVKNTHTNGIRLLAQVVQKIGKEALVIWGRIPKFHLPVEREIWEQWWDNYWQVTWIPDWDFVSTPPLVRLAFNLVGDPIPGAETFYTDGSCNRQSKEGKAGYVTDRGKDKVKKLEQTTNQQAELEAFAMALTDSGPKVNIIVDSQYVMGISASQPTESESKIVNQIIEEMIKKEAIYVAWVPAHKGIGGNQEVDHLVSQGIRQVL

Tests used:
[1] = target: HIV-2 RT (Human immunodeficiency virus type 2 subtype A, UniProt P04584); conditions: cited from earlier work
[2] = tested on: human cellular DNA polymerases alpha, beta, gamma, and delta; conditions: cited from earlier work
[3] = cited from earlier work
[4] = tested on: ACH-2 cell line; test: ACH-2 cell line model for HIV latency, HIV p24 expression by flow cytometry; type: cell-based; conditions: for % of cells induced: ACH-2 cells
[5] = tested on: resting CD4+ T cells from aviremic, ART-treated HIV+ patients; test: limiting-dilution outgrowth assay, HIV detected by p24 antigen capture ELISA; type: cell-based, human; conditions: VPA 40 μM, SAHA 250 nM, PHA/allo

Row | Structure (SMILES) | inhibition of HIV-2 RT [1] | inhibition of human cellular DNA polymerases alpha, beta, gamma, and delta [2] | solubility in water [3] | % of cells induced [4] | IC50 ([4]; Homo sapiens, ACH-2, 24 h, read-out: IC50 (induction of HIV expression)) | Infected resting cells per billion after exposure to ([5]; Patient A1) | Infected resting cells per billion after exposure to ([5]; Patient B) | Infected resting cells per billion after exposure to ([5]; Patient C)
1 | O=C1Nc2ccc(Cl)cc2[C@@](C#CC2CC2)(C(F)(F)F)O1 [Efavirenz, (S)-6-chloro-4-(cyclopropylethynyl)-1,4-dihydro-4-(trifluoromethyl)-2H-3,1-benzoxazin-2-one] | not inhibited | not inhibited | practically insoluble |  |  |  |  | 
2 | CC(/C=C/C(=O)NO)=C\[C@@H](C)C(=O)c1ccc(N(C)C)cc1 [TSA, Trichostatin A] |  |  |  | 78% |  |  |  | 
3 | CCCC(CCC)C(=O)O [VPA, valproic acid] |  |  |  | 62% | 910 µM | 223 per billion | >11,300 per billion | 25 per billion
